{
  "sequences": {"note": "Sequences of proteins named here, by UniProt entry; tags and fusion partners are left off. A change or cut given only in a name is not applied to a line headed by its entry.", "UniProt Q9NZ20": "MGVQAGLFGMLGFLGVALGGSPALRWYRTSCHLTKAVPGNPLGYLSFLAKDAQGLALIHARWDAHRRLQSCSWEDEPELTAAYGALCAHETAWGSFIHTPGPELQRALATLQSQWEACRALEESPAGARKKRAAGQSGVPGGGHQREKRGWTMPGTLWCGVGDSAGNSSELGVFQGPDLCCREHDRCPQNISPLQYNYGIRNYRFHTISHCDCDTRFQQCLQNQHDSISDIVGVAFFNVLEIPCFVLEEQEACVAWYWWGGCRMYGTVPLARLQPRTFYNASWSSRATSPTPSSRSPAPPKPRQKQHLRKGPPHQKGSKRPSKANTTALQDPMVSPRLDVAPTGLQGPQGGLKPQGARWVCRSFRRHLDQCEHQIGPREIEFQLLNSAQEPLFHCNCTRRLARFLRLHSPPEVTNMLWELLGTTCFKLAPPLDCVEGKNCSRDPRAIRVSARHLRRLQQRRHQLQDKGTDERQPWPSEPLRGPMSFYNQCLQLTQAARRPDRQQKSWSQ"},
  "source": "PubChem BioAssay AID743280",
  "about": "(The Scripps Research Institute Molecular Screening Center, 2014)",
  "note": "The list shows a part of the results, in another mix than the full data. Calls of active or inactive are those of the source.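 The calls were made as follows: active = mean inhibition across triplicates above the hit cutoff set in the earlier primary screen (cut at about 19% in these data); inactive = the rest.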",
  "data": [
    {"target": "Group 3 secretory phospholipase A2 (Homo sapiens) (UniProt Q9NZ20)", "experiment": "human group III sPLA2 inhibitors, confirmation, biochemical, QFRET, triplicate (AID 743280);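 also: 0% = enzyme with DMSO and 100% = DMSO wells lacking enzyme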", "settings": "recombinant hGIII-sPLA2, BODIPY PC-A2 QFRET fluorescence; at 12.2 µM; active compounds read high", "values": [
      {"compound": "O=[N+]([O-])c1cc(Oc2ccc([N+](=O)[O-])cc2C(F)(F)F)cc([N+](=O)[O-])c1", "inhibition": "active: 24.1%"}
    ]}
  ]
}
